The list is not random: actives were taken first. Their share in the collection is about 0.46%.
HCMV NEC inh: cytomegalovirus nuclear egress complex inhibition | actives 0.15% (n = 190,000) | inhibition, % (test concentration not listed) | AID 1918969 | HTRF UL50-UL53 interaction, normalized percent inhibition; in the data active means inhibition above about 27%, passing the limit was not always enough
GIV-Gai inh: inhibitors of GIV GBA-motif binding to rat Galpha-i3; P08753; Galpha-i3/FITC-GIV peptide fluorescence polarization, 90 min; active compounds read low; scaled: aluminum fluoride 0%, vehicle 100%; percent of control (FP), % (concentration not given with the values); 210,000 compounds, 0.42% hits; AID 1224905;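 active means replicate mean at 85% of control or lower, very high polarization wells dropped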;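 further: wells of about 15 µL received 100 nL stock; the first replicate is given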
GIV Gai FP conf: GIV-Galpha-i3 inhibition, FP confirmation | AID 1259350 | actives 38% (n = 580) | shares compounds with GIV-Gai inh | FITC-GIV peptide binding to Galphai3, fluorescence polarization; hits give low values | fluorescence polarization, mP at 100 µM;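 active means inhibition score of 15 or more, meaning 100 minus mean polarization as percent of control over three replicates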;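 further: lower mP means peptide displaced from Galphai3 so more inhibition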
GIV-Gai AS conf: GIV-Galpha-i3 inhibition, AlphaScreen confirmation; AlphaScreen counts at 100 µM; AlphaScreen Galphai3-GIV binding, purified proteins, 90 min; hits give low values; actives 39% (n = 580); shares compounds with GIV-Gai inh; AID 1259351;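 active means inhibition score at or above a set limit, where the score is 100 minus the three-replicate mean percent of control signal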
* hit, by the source's call; . = not tested or not shown.

Key to letters – A = HCMV NEC inh; B = GIV-Gai inh; C = GIV Gai FP conf; D = GIV-Gai AS conf
COc1ccc(NC(=O)c2sc3nc4c(c(-c5ccc(OC)cc5)c3c2N)C(=O)CC(C)(C)C4)cc1
  A: -40	B: 70*	C: 81	D: 32279
CC(C)c1cc(C(=O)N2CCCCC2C)no1 (configuration not stated)
  A: -26	B: 100	C: .	D: .
CCc1nnc(/N=C/c2cc(-c3ccccc3)oc2O)s1
  A: 5	B: 115	C: .	D: .
CCOC(=O)c1[nH]c(C)c(S(=O)(=O)Nc2ccc(Br)cc2F)c1C
  A: -8	B: 108	C: .	D: .
COc1ccc(-c2csc(-c3nc(-c4ccccc4)cs3)n2)cc1
  A: -6	B: 107	C: .	D: .
CCC1=NN(C(=O)c2ccccc2C)C(O)(c2ccc(Br)cc2)C1 (configuration not stated)
  A: .	B: 106	C: .	D: .
O=C(CCN(Cc1cccc(Cl)c1)C(=O)c1ccc(F)c(F)c1)N1CCNCC1
  A: -6	B: 99	C: .	D: .
Cc1nn2c(N3CCN(CCO)CC3)cc(C(C)(C)C)nc2c1-c1ccc(F)cc1
  A: -9	B: 96	C: .	D: .
COc1ccc(NC(=O)c2sc3nc(-c4cccs4)cc(C(F)(F)F)c3c2N)cc1
  A: .	B: 75*	C: 68	D: 53981
Nc1c(C(=O)N2CCOCC2)sc2nc(-c3cccs3)cc(C(F)(F)F)c12
  A: .	B: 108	C: .	D: .
CCOc1ccc(-c2c(C#N)c(N)nc3sc(C(=O)Nc4ccc(Br)cc4)c(N)c23)cc1
  A: -16	B: 86	C: 64	D: 51717
CCc1c(C#N)c(N)nc2sc(C(=O)Nc3ccc(Br)cc3)c(N)c12
  A: -19	B: .	C: .	D: .
Brc1ccc(COc2cccc3ccc(N4CCCC4)nc23)cc1
  A: 6	B: 102	C: .	D: .
Cc1cc(-c2c(C)sc(C)c2S(=O)(=O)Nc2ccc(C)c(Cl)c2)n[nH]1
  A: .	B: 96	C: .	D: .
C(#Cc1cccc(-c2nc(-c3ccccc3)c(-c3ccccc3)[nH]2)c1)c1ccccc1
  A: .	B: 100	C: .	D: .
CCn1c(C)c(CN2CCC(C(=O)N3CCCC3)CC2)c2ccccc21
  A: .	B: 102	C: .	D: .
CCn1c2c(c3ccccc31)CN(C(=O)C1CCC1)CC2
  A: .	B: 51*	C: 20*	D: 14471*
Cc1nc(N=Nc2cc(S(=O)(=O)O)c3cc([N+](=O)[O-])cc(S(=O)(=O)O)c3c2)c(COP(=O)(O)O)c(C=O)c1O
  A: 34	B: 17*	C: 53*	D: 3265*
CCc1cc(C2CCCN2S(=O)(=O)c2ccccc2)on1 (configuration not stated)
  A: .	B: 105	C: .	D: .
Cc1ccc(C=Nc2cccc3nsnc23)c(O)c1
  A: -33	B: 101	C: .	D: .
Oc1ccc(Cl)cc1C=Nc1cccc2nsnc12
  A: 26	B: 74*	C: 58*	D: 6922*

Random excerpt: 2 entries already listed, in no set order.
Key to letters – A = HCMV NEC inh; B = GIV-Gai inh; C = GIV Gai FP conf; D = GIV-Gai AS conf
CCc1nnc(/N=C/c2cc(-c3ccccc3)oc2O)s1
  A: 5	B: 115	C: .	D: .
CC(C)c1cc(C(=O)N2CCCCC2C)no1 (configuration not stated)
  A: -26	B: 100	C: .	D: .
